This experiment addresses hRbBP5 (Isoform 2) (human). Kind of experiment: ITC. A general note: Isothermal titration calorimetry measures the heat released or taken up as one component is titrated into another.

The term Kd denotes the concentration at which binding is half-saturated. Low readings indicate tighter binding, high ones weaker binding. Regarding “WDR5 23-334 (from UniProt P61964 23-334) (domain or fragment)”, the dissociation constant (Kd) is 620 nM.

The values above are taken from paper doi:10.1101/2023.06.05.543739.
